Key:
HT-29 = experiment: cells; conditions: Homo sapiens, HT-29, 72 h
BXPC-3 = experiment: cells; conditions: Homo sapiens, BXPC-3, 72 h

CCN(CC)CCNC(=O)c1c(C)[nH]c2c1CCC/C2=C1/C(=O)Nc2ccc(C)cc21
IC50 (HT-29): 1.73 µM | IC50 (BXPC-3): 2.43 µM
